In ChEMBL document CHEMBL3046309, “Dihydropiperazine neonicotinoid compounds. Synthesis and insecticidal activity” (J Agric Food Chem, 2003) one finds Ki data, which are given here for 3 compounds.

The chains behind the UniProt entries cited, without tags or fusion partners. Residues count along the entry.
UniProt A9XFY4, 20-781 limits assumed: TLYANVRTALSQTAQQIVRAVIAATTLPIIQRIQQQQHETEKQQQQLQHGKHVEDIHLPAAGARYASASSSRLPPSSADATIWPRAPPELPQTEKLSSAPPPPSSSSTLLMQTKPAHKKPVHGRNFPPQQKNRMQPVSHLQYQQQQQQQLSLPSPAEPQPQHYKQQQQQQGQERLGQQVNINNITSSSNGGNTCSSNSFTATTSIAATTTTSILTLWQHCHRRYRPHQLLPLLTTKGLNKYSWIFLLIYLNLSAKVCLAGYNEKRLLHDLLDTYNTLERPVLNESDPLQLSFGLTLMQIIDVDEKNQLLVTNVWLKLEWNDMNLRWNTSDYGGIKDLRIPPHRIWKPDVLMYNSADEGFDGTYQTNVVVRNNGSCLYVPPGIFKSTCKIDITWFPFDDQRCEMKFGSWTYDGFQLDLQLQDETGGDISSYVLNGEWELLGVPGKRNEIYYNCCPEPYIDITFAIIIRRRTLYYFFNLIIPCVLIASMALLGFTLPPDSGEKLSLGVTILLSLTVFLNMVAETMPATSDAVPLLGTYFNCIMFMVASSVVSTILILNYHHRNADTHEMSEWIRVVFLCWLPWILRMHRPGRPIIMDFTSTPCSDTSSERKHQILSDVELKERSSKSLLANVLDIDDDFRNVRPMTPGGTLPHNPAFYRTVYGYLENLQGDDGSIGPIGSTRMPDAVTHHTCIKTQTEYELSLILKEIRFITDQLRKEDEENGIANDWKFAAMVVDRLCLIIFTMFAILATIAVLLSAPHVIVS

In this test the target is Nicotinic acetylcholine receptor alpha 5 subunit (Musca domestica, UniProt A9XFY4). The experiment in a line: Displacement of [3H]imidacloprid from nicotinic acetylcholine receptor in Musca domestica (house fly) head membrane after 1 hr by liquid scintillation counting analysis. On the technique in general: Loss of bound radioactivity is the signal in a displacement assay; it reports binding, not function.

pKi: −log10 of the molar value.

Take `CN1CCN=C(N(C#N)Cc2ccc(Cl)nc2)C1=O`: the pKi is below 5.00.

The compound `CN1C/C(=N\C#N)N(Cc2ccc(Cl)nc2)CC1=O` showed a pKi below 5.00.

Consider `O=C1/C(=N\O)NCCN1Cc1ccc(Cl)nc1`, for which the pKi was 5.48.

As a reminder, the pKi is the Ki on a negative log10 scale, so that one unit is a factor of ten.
